Results taken from article PMC11284600, “Many human pharmaceuticals are weak inhibitors of the cytochrome P450 system in rainbow trout (Oncorhynchus mykiss) liver S9 fractions” (Frontiers in Toxicology, 2024).

Columns and labels:
[1] = design: method as in PubChem; settings: (e) empirical; ref PubChem; cited from earlier work
CYP1A-like EROD activity = assay: in vitro; settings: both, Christophersen, Bornhoeved, rainbow trout (Oncorhynchus mykiss), s9, pH 7.8, EROD inhibition in RT-S9, IC50 shift (A/C)
[2] = molecular target: T1, CYP3A-like BFCOD activity (Oncorhynchus mykiss, UniProt O42563); assay: BFCOD inhibition in RT-S9 (IC50 shift assay); settings: both, Christophersen, Bornhoeved, rainbow trout (Oncorhynchus mykiss), s9, pH 7.8, BFCOD inhibition in RT-S9, IC50 shift (A/C), IC50 Protocol A / IC50 Protocol C
T1 sequence (O42563 1-518): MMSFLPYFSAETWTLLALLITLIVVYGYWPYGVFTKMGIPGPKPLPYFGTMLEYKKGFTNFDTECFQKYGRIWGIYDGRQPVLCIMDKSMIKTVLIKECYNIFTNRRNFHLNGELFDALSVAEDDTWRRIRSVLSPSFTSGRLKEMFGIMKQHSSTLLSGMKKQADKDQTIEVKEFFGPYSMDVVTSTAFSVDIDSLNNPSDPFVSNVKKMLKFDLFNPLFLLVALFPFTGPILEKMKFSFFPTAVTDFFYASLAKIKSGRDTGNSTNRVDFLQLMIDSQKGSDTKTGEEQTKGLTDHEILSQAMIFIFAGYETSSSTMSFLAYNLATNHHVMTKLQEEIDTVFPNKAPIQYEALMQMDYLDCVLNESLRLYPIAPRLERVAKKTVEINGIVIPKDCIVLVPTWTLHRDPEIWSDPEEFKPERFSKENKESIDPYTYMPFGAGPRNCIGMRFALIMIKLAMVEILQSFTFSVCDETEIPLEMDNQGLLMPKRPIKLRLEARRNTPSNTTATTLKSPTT

CCN1CCCC1CNC(=O)c1cc(S(N)(=O)=O)ccc1OC (stereo not shown) [Sulpiride, sulpiride]
LogKOW [1]: 0.57 (e)

CN1CCCC(n2nc(Cc3ccc(Cl)cc3)c3ccccc3c2=O)CC1 (stereo not shown) [Azelastine, azelastine hydrochloride]
LogKOW [1]: 4.9 (e) | IC50 shift at 10 min (CYP1A-like EROD activity): 0.8 | IC50 shift at 20 min [2]: 0.5

Counter-ions that a name gives are not always drawn.
